Experimental data: ChEMBL document CHEMBL1828598, “Discovery of gemfibrozil analogues that activate PPARα and enhance the expression of gene CPT1A involved in fatty acids catabolism” (Eur J Med Chem, 2011)
The source made the active and inactive calls. The rule behind the calls is not given here.

biological target: T1, Peroxisome proliferator-activated receptor alpha (Homo sapiens) (UniProt Q07869); test: Agonist activity at Gal4-fused PPARalpha expressed in HEK293 cells after 18 hrs by dual luciferase reporter gene assay relative to gemfibrozil; assay type: functional, cell-based
T1 sequence (whole entry): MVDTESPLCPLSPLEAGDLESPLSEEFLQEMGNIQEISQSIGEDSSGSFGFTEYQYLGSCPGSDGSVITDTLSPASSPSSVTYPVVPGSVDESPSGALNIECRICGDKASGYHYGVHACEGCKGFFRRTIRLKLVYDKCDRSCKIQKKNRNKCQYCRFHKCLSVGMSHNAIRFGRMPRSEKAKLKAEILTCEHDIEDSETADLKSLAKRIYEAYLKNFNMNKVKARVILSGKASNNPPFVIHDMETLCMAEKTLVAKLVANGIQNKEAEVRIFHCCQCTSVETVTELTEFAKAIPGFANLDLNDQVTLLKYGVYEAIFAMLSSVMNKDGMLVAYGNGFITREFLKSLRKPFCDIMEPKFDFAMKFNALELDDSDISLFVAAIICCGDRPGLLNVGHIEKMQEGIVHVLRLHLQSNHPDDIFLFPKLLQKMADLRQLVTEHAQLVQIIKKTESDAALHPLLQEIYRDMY
In short: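 HEK293 cells were grown in DMEM with 10% FCS, penicillin/streptomycin, sodium pyruvate and nonessential amino acids at 37 °C, 5% CO2. The next day they were transfected in serum-free medium by calcium phosphate with GAL4-PPARα LBD (30 ng), firefly luciferase reporter (50 ng), renilla normalization vector (20 ng) and carrier DNA. Ligands were added 8 h later for 18 h. Efficacy is given as % of maximal gemfibrozil fold induction, from at least three separate experiments.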

| Efficacy | Compound |
| --- | --- |
| inactive | CC(=O)c1ccc(OCCCCC(=O)O)cc1 |
| inactive | O=C(O)CCCCOc1ccc(Oc2ccccc2)cc1 |
| inactive | CC(=O)c1ccc(OCCCC(C)(C)C(=O)O)cc1 |
| inactive | O=C(O)CCCCOc1ccc(/N=N/c2ccccc2)cc1 |
